US20260028382A1, “IMMUNOGENIC PEPTIDES AND THEIR USES IN CANCER DIAGNOSIS AND THERAPY” (The Chinese University of Hong Kong, priority 2024, published 2026)

Tested on: CD8+ T cells
Assay: IFN-γ ELISpot assay of peptide immunogenicity (peptide-pulsed DC:CD8+ T cell co-culture)
Format: cell-based, human
Settings: pan-DCs loaded with peptide co-cultured with autologous CD8+ T cells for 24 hours; six healthy donors
Source text: We obtained peripheral mononuclear cells (PBMCs) from healthy donor buffy coat samples via density gradient centrifugation. We utilized QIAamp DNA Blood Kits (Qiagen) to isolate DNA for HLA typing with LinkSeq™ HLA-ABCDRDQDP+ 384 Kit (One Lambda) on a QuantStudio™ 7 Flex Real-Time PCR System. Human T and dendritic cells (DCs) were enriched from PBMCs using a CD8 cell isolation kit and Pan-DC enrichment kit (Miltenyi Biotec), respectively, and subsequently cultured in RPMI-1640 medium (Life Technologies) supplemented with 10% FBS and 100 U/mL of Penicillin-Streptomycin.
Dendritic cells (DCs) were pulsed with a 10 μg mL^−1 peptide concentration at a cell density of 10^5 cells/mL for 4 hours at 37° C. Following this, the DCs were mixed with autologous CD8+ T cells at a DC:T cell ratio of 1:10. […] The secreted IFN-γ signal was detected using the ELISpot Plus Human IFN-γ (ALP) kit (Mabtech). […]
We utilized ELISpot assay, which quantifies cytokine IFN-γ releasing by CD8^+ T lymphocytes isolated from PBMCs of healthy subjects, to verify the immunogenic potential of candidate peptides. […] Specifically, we chose p2 due to its origin from an extended 5′-UTR and its tumor-specificity based on short-read data. Additionally, we included p9 as it represents a tumor-specific frame-shift product with validation from long-read sequencing. […]

## SLLMWITQV [NY-ESO-1, positive control peptide in the ELISpot assay]
  T cell immune response (IFN-γ secretion) compared to the unstimulated control: significant T cell immune response in five out of six donor samples
